Assay results as given in patent publication US10919941B2, “Functional lipid constructs” (KODE BIOTECH LIMITED, priority 2007, dated 2021).

Test system: spermatozoa
Conditions: construct 0.1 mg/mL
Method: Spermatozoa were washed and isolated by layering 1.1 mL of fresh semen over a gradient of SpermGrad 125 (Vitrolife 10099; 2 mL of 40% solution over 2 mL of 80% solution in a 15 mL round bottom tube) and centrifuging at 500×g for 20 min.
The bottom layer of the gradient (c. 0.7 mL was transferred to 4 mL round bottom tubes and c. 2 mL flushing (handling) media (Medicult 10840125A) added. The tube was centrifuged at 300×g for 10 min and the spermatozoa washed two more times (mixing by tube inversion).
Samples of washed spermatozoa were incubated overnight at 37° C. in a 5% CO2 atmosphere.
Open tubes were incubated at 37° C. in a 5% CO2 atmosphere prior to addition of c. 70 μL spermatozoa (c. 25×10^6/mL) to each tube and incubation for 120 min (A), 60 min (B), 30 min (C), 10 min […] and 120 min (E).
Following incubation a couple of drops of flushing media were added and the tubes centrifuged at 300×g for 5 min. The spermatozoa were washed two more times with flushing media and before being re-suspended in culture media to a final volume of 100 μL.
Streptavidin beads at a concentration of c. 6.25×10^6/100 μL were diluted 35 times in BSA plus flushing media to provide a ratio of 0.1 beads/spermatozoa when mixed in equal volume with a diluted suspension of the modified spermatozoa. […]
The assessment of the attachment of streptavidin beads to modified spermatozoa is recorded in Table 27.

Substance: Biotin-CMG(2)-Ad-DOPE
- motile capacity of spermatozoa after attachment of streptavidin beads: retain motile capacity
